Results: patent publication US20110136858A1, “Preferred Combination Therapy” (priority 2009, published 2011)

Assay: Effect of co-administration of triphenylethylenes on clopidogrel metabolism in vivo (CLP*-acetamide by LC-MS)
Set-up: species or system Sprague-Dawley rats
Conditions: oral gavage, rats
Description: Adult male Sprague-Dawley rats are dosed with various triphenylethylenes at different doses from 0.1 mg/kg to 10 mg/kg (spanning the likely doses such compounds would be used in man), or with vehicle only, and simultaneously dosed with 10 mg/kg clopidogrel, both by oral gavage. Blood samples are drawn through an in-dwelling jugular catheter at 0.5, 1, 2, 4, 8 and 24 hrs post-dose, and serum is prepared by conventional methods well known in the art.
The level of CLP*, the active metabolite of clopidogrel is then determined in each blood sample by LC-MS by collecting the blood samples in tubes containing the thiol alkylating agent iodeoacetamide. Iodoacetamide reacts with CLP* to generate a stable product which can be detected by LC-MS using standard methodology well known in the art. An authentic sample of the acetamide adduct of CLP* is used to quantify the level of CLP*-acetamide in the sample. […] The concentration of CLP*-acetamide adduct can therefore be assumed to be proportional to the concentration of CLP*. The pharmacokinetics of CLP*-acetamide are then compared under the different conditions, using standard pharmacokinetics models implemented with WinNonLin.

With CN(C)CCOc1ccc(/C(=C(/CCCl)c2ccccc2)c2ccccc2)cc1 [Toremifene] the “% inhibition of CLP*-acetamide Cmax compared to vehicle control” value (from here on “% inhibition of CLP*-acetamide Cmax”) (analog 0.1 mg/kg with 10 mg/kg clopidogrel) was 11%, the “% inhibition of CLP*-acetamide Cmax” value (analog 1 mg/kg with 10 mg/kg clopidogrel) was 48% and the “% inhibition of CLP*-acetamide Cmax” value (analog 10 mg/kg with 10 mg/kg clopidogrel) was 77%.
